Here are results for one substance from patent publication US20260216141A1, “NECROSIS INHIBITOR” (LINKGEVITY LIMITED, priority 2023, published 2026).

The data set has as its system Hepg2s spheroids. The data set is classed as cell-based. To be noted: compound in isolation, most trials. The procedure: Media changes were on alternative days. […] DMSO controls were added on each plate.
In some of the following Examples, human 3D cell culture was employed using liver Hepg2 cells. 3D cell culture is known to accurately replicate a cell's native environment. During embryonic development, cells aggregate and self-assemble into complex multi-cellular structures. The same aggregation process can likewise occur in in vitro culture systems if cell-cell cohesion is favoured over cell attachment to a substrate. The resulting 3D cell culture aggregates are known as spheroids. […] A standard method of spheroid formation in U-bottom low adhesion plates was used in the Examples herein.
This is because, as the spheroids grow, only the peripheral cells obtain oxygen and nutrients from the cell culture medium. The inner cells die from cell death necrosis, with the formation of large necrotic cores (observable though use of standard live dead stains). Thus, necrotic core formation represents a naturally occurring hypoxic and nutrient stress. This resembles multiple forms of shock in humans where blood flow carrying nutrients and oxygen is disrupted to certain cells, tissues and/or organs.

For the substance ryanodine, the “level of cell death / toxicity in isolation relative to control” value is recorded as “greater level of cell death than the control”.
